Assay results published in patent US9908923.

The chains behind the UniProt entries cited, without tags or fusion partners. Residues count along the entry.
UniProt P48061, 22-89 limits assumed: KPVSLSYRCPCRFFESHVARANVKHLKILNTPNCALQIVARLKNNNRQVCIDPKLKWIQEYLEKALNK

What was measured:
[1] = target: CXCL12WT (wild type CXCL12) (Homo sapiens (Human)) (UniProt P48061); experiment: dimerization in 100 mM NaPO4 pH 7.4; 100 mM NaPO4 (pH 7.4)
[2] = target: CXCL12WT (wild type CXCL12) (Homo sapiens (Human)) (UniProt P48061); experiment: dimerization without peptide, from fluorescence polarization at 298 K
[3] = target: CXCL12WT (wild type CXCL12) (Homo sapiens (Human)) (UniProt P48061); experiment: dimerization after binding of the sTyr21 sulfopeptide, from fluorescence polarization at 298 K
[4] = target: CXCL12WT (wild type CXCL12) (Homo sapiens (Human)) (UniProt P48061); experiment: CXCL12WT dimerization, intrinsic tryptophan fluorescence polarization, in the presence of 50 mM sulfotyrosine
[5] = target: CXCL12WT (wild type CXCL12) (Homo sapiens (Human)) (UniProt P48061); experiment: CXCL12WT dimerization, intrinsic tryptophan fluorescence polarization, in the presence of 3 mM sTyr21 sulfopeptide
[6] = target: CXCL12WT (wild type CXCL12) (Homo sapiens (Human)) (UniProt P48061); experiment: CXCL12WT dimerization, intrinsic tryptophan fluorescence polarization, 25 mM MES pH 6.8, 298 K; alone, no sulfotyrosine or sTyr21 sulfopeptide

Question: What does the source list for “CXCL12WT (wild type CXCL12) (from UniProt P48061 22-89) (ligand; other documents disagree on this pair)”?
Answer: Kd [1]: 0.14 mM; ΔGdimer [2]: -2.5 kcal/mol; ΔGdimer [3]: -3.5 kcal/mol; Kd [4]: 8.9 mM; Kd [5]: 2.6 mM; Kd [6]: 15.1 mM
